Results on nine molecules are retold here after article PMC11879040 (2024).

Protein sequences, listed by entry. Tags and fused reporters are not part of them. Lines headed by an entry give the natural chain unless they say otherwise; changes in a name come on top.
UniProt Q12809: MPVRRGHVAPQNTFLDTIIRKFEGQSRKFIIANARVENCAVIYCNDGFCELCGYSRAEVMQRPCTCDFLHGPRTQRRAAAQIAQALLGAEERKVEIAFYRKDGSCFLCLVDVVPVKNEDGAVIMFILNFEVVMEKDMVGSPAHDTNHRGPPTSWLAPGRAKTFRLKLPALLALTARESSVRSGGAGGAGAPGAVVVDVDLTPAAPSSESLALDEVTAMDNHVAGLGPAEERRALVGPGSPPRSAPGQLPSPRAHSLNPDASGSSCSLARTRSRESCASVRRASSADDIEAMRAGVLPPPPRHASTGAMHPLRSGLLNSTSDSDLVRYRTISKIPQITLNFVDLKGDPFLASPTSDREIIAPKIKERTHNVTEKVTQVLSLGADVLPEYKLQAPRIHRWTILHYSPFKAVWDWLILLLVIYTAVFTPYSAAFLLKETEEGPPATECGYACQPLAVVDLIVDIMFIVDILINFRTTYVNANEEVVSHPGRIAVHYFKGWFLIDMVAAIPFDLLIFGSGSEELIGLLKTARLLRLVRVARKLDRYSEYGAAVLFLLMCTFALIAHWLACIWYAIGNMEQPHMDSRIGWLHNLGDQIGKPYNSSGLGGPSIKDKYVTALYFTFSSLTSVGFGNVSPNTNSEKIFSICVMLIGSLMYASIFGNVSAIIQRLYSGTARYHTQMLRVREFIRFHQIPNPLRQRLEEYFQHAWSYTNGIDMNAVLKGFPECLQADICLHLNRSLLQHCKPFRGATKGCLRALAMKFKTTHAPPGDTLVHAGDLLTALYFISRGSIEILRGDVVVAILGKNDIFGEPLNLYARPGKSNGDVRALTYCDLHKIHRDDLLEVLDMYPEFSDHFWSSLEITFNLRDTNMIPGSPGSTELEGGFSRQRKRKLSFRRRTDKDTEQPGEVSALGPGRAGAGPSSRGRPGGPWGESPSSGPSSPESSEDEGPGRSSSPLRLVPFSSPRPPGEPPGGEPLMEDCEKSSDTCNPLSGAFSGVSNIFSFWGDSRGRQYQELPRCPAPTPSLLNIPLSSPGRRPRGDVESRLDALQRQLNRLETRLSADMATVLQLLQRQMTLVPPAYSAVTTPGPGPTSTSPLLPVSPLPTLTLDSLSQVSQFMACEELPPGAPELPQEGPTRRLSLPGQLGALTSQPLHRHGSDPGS
UniProt P22002, whole entry: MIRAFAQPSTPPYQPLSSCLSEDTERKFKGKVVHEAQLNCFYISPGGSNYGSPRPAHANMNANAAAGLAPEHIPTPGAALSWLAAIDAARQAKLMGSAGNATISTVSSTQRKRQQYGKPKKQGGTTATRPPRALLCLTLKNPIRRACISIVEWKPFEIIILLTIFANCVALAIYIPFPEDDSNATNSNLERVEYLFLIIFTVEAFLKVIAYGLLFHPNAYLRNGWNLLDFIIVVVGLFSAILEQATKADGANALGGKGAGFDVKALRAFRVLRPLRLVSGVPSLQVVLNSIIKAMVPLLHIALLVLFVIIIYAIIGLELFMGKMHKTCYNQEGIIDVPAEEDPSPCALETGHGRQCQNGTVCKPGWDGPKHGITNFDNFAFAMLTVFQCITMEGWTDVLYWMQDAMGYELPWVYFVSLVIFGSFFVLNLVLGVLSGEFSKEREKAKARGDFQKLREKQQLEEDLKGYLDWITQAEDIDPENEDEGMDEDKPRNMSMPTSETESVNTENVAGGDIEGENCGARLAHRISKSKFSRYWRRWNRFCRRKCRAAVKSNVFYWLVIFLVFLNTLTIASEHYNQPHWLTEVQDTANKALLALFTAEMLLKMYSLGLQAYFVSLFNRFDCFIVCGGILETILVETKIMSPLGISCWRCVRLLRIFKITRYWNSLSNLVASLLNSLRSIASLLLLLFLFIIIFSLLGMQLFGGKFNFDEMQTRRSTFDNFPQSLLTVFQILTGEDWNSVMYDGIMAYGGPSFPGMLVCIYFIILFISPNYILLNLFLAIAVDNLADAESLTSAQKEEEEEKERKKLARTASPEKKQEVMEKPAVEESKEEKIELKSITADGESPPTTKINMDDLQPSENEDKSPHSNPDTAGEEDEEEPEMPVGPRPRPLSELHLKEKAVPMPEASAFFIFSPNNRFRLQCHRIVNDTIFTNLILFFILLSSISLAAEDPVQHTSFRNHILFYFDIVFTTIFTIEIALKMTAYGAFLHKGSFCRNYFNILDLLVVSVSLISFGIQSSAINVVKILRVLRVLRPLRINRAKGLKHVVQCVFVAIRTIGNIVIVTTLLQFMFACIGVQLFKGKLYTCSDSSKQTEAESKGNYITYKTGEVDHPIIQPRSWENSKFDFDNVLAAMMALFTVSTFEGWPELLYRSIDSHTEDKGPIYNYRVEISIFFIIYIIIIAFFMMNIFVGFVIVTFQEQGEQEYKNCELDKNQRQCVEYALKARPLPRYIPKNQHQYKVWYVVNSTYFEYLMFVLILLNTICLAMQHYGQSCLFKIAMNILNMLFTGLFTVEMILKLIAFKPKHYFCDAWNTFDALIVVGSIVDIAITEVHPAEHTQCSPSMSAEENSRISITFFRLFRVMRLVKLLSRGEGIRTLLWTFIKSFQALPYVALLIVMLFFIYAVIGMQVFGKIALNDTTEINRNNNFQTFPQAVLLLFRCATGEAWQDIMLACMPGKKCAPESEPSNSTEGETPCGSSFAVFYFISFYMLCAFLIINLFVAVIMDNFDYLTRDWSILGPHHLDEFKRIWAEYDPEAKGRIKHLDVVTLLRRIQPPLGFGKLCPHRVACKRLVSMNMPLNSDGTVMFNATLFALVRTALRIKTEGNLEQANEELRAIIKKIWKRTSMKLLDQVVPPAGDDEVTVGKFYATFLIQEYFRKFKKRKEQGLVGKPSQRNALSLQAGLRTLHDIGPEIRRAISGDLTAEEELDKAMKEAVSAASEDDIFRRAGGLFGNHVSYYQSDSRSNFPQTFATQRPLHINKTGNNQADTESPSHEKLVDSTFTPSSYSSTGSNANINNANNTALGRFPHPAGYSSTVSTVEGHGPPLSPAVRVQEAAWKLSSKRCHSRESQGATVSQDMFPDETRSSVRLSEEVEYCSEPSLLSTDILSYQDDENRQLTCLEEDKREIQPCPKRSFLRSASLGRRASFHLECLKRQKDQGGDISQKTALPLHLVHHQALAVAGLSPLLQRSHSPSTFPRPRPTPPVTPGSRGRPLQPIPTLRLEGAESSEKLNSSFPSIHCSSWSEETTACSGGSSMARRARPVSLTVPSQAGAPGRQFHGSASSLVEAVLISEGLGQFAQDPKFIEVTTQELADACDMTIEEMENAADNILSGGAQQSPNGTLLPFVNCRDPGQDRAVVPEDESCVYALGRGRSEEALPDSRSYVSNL
UniProt P28223, whole entry: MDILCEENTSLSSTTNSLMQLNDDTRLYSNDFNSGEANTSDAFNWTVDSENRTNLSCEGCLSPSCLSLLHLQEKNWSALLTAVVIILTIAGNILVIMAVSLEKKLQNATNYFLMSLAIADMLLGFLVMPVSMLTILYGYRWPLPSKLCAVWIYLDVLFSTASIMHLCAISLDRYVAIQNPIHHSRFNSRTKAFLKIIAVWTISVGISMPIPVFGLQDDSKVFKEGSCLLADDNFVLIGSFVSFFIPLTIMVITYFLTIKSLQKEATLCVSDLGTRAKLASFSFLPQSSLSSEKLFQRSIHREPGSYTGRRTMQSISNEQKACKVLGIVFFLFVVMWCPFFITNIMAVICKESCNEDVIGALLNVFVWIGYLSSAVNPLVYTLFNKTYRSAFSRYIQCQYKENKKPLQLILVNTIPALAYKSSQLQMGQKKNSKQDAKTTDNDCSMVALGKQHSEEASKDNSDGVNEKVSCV
UniProt P11229: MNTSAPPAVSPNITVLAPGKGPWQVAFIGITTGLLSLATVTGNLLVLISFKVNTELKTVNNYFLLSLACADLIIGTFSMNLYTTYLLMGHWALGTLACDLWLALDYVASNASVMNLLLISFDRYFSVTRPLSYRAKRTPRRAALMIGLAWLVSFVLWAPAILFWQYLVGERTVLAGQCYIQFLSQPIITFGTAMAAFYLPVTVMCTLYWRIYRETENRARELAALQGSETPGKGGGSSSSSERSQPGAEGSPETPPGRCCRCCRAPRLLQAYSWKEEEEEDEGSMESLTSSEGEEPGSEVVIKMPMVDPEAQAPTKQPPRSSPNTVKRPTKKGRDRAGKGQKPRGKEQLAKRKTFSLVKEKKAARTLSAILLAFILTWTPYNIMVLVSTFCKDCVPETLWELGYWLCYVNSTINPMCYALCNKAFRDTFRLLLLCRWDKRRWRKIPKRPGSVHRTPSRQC
UniProt P35367, whole entry: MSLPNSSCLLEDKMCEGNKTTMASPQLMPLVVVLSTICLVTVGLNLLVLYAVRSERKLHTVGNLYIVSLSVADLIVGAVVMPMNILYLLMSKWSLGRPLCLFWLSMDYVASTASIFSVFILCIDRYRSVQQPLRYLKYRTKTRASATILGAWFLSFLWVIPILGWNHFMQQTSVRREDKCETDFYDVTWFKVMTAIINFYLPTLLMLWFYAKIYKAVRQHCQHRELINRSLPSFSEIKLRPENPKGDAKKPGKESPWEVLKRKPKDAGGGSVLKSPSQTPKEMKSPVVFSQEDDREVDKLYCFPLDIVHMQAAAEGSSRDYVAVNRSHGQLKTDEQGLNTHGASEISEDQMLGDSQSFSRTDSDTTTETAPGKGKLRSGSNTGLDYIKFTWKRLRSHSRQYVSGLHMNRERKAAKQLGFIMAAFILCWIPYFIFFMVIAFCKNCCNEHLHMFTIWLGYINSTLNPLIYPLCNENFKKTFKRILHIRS

The test system of data set [1] is Sodium channel protein type 5 subunit alpha (site 2), SCN5A (r). The conditions noted are these: IPP screening at 10 uM; control veratridine.
The target of data set [2] is Potassium voltage-gated channel subfamily H member 2 hERG, KCNH2 (h) (Homo sapiens, UniProt Q12809).
Data set [3] concerns the target Voltage-dependent L-type Ca2+ channel (dihydropyridine site), CACNA1C (r) (Rattus norvegicus, UniProt P22002).
Data set [4] has as its target 5-hydroxytryptamine receptor 2A, HTR2A (h) (Homo sapiens, UniProt P28223).
Data set [5] deals with Muscarinic acetylcholine receptor M1, CHRM1 (h) (Homo sapiens, UniProt P11229).
Data set [6] addresses Histamine H1 receptor, HRH1 (h) (Homo sapiens, UniProt P35367). As to the kind of experiment: IPP HRH1 binding (antagonist radioligand).

Turning to `CC(=O)N1CCN(c2ccc(OC[C@H]3CO[C@](Cn4ccnc4)(c4ccc(Cl)cc4Cl)O3)cc2)CC1`, the Specific binding in data set [1] amounted to 47.6%.
`CCOC(=O)c1ccc(N)cc1` [Benzocaine, Ethyl 4-aminobenzoate]: the “IPP screening %, Specific binding” value in data set [2] stood at 13.7%.
Same read-out and setting: in the case of `CCOP(=S)(OCC)Oc1nc(Cl)c(Cl)cc1Cl` [Chlorpyrifos, O,O-Diethyl O-(3,5,6-trichloropyridin-2-yl) phosphorothioate] it was 7.4%; in that of `O=P1(N(CCCl)CCCl)NCCCO1` (centres unmarked) [Cyclophosphamide, 2-[Bis(2-chloroethyl)amino]-1,3,2lambda~5~-oxazaphosphinan-2-one], -10.7%.
On to `C[C@@H]1C[C@H]2[C@@H]3CCC4=CC(=O)C=C[C@]4(C)[C@@]3(F)[C@@H](O)C[C@]2(C)[C@@]1(O)C(=O)CO` [Dexamethasone, 9-Fluoro-11beta,17,21-trihydroxy-16alpha-methylpregna-1,4-diene-3,20-dione], for which the “IPP screening %, Specific binding” value in data set [2] came out at 0.0%.
As for `N#CC(CCc1ccc(Cl)cc1)(Cn1cncn1)c1ccccc1` (centres unmarked) [Fenbuconazole, 4-(4-Chlorophenyl)-2-phenyl-2-[(1H-1,2,4-triazol-1-yl)methyl]butanenitrile], the “IPP Dose Response PoD: CACNA1C” value in data set [3] is “[8.5,12.5]”.
For the molecule `CCN(CC)CCNC(=O)c1cc(Cl)c(N)cc1OC` [Metoclopramide, 4-Amino-5-chloro-N-[2-(diethylamino)ethyl]-2-methoxybenzamide], the “IPP screening %, Specific binding” value in data set [2] was 46.0%.
On the same count and under the same terms, in the case of `CC(=O)Nc1ccc(O)cc1` [Paracetamol, N-(4-Hydroxyphenyl)acetamide] it was -17.9%.
For “(4S,4aR,5S,5aR,6S,12aS)-4-(Dimethylamino)-3,5,6,10,12,12a-hexahydroxy-6-methyl-1,11-dioxo-1,4,4a,5,5a,6,11,12a-octahydrotetracene-2-carboxamide--hydrogen chloride (1/1) [Oxytetracycline hydrochloride]”, the Specific binding was -21.8% in data set [4], 1.7% in data set [5] and 6.0% in data set [6].
